scFv variants of Ab-14 (light chain) against a SARS-CoV-2 spike peptide

The measurements come from Li et al. 2023 (doi:10.1038/s41467-023-39022-2) through the FLAb antibody collection.

Antigen: PDVDLGDISGINAS, a 14-residue peptide of the SARS-CoV-2 spike HR2 region.

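The parent was found by panning a naive human phage display library on the peptide. This is the validation round: designs drawn from the data on random variants, tested in the same kind of assay. Their group label is 14L_GP_Gen (GP: Gaussian process model; Gen: genetic algorithm; a sequence that several methods proposed may carry one label only). Affinity was read by AlphaSeq, a pooled yeast mating assay with surface-displayed partners. Mating (16 h, 30 °C) was followed by selection of diploids and sequencing of their barcodes. Scores were corrected for input abundance and mapped to Kd with protein pairs of known affinity run in the same pool. There are six technical replicates.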

Parent scFv Ab-14: VH joined to VL by a (GGGGS)3 linker. Changes lie in the light chain CDRs alone.
VH: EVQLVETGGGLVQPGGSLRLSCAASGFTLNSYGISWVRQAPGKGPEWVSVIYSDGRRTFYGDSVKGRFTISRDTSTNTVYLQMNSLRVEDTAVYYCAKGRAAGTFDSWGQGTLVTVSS
VL: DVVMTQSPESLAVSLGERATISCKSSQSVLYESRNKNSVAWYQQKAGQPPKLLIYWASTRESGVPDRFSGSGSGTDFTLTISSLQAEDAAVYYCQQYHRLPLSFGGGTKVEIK

Positions count from residue 1 of the parent VL; S25L puts L in place of S. Scale: log10 of Kd in nM, estimated from mating counts; low values are strong binders. A mean of the replicates is given; it leaves out those without a signal. An entry "ND" has no value in the source: the pair was not observed among the diploids in that replicate. This suggests poor binding but is not conclusive. Values of this round are not directly comparable with the first-round values of the same sequences. Three control strains display no target. For all light chain designs, 4% of the pairings with them gave a signal, with a median of 2.64 and one signal in twenty below 1.59, so weak values seen in few replicates may be background. For each scFv, signals with the empty controls are counted beside the result, with their mean in brackets. The authors' rule: three or more of the six replicates give a measured affinity, fewer mean a poor binder.

changes,"replicates, log10 nM","mean, log10 nM",empty controls
S25L V29F S33Q W56N,-0.19 / -0.18 / -0.37 / -0.45 / -0.31 / -0.17,-0.28,0/18
S25I L30D S33D W56N,0.24 / 0.40 / 0.65 / 0.33 / 0.29 / 0.75,0.44,0/18
S25L Q27M W56D,-0.31 / -0.37 / -0.37 / -0.58 / -0.39 / -0.31,-0.39,3/18 (2.98)
S25L S26P V29M W56D T59Q,-0.15 / -0.10 / -0.41 / -0.40 / -0.30 / 0.01,-0.22,0/18
S25L V29E K36P W56N,-0.31 / -0.41 / -0.41 / -0.39 / -0.43 / -0.24,-0.36,1/18 (1.81)
S25L Y31Q W56N,-0.15 / -0.36 / -0.31 / -0.44 / -0.43 / -0.31,-0.33,2/18 (2.96)
S25L S26H W56N E61M,-0.10 / -0.23 / -0.18 / -0.42 / -0.38 / -0.18,-0.25,0/18
S25L S26Q W56N S62L,0.02 / -0.16 / -0.28 / -0.26 / 0.05 / -0.04,-0.11,2/18 (1.97)
S25L W56G E61S,0.16 / 0.00 / -0.30 / -0.34 / -0.10 / -0.16,-0.12,0/18
S25F V29E N35Q W56N T59Q,ND / 0.65 / 1.07 / 0.12 / 0.44 / 0.55,0.57,1/18 (1.34)
S25L W56Q E61M,-0.01 / -0.26 / -0.10 / -0.12 / -0.15 / 0.00,-0.11,3/18 (2.07)
S25L V29W S38N W56E,-0.07 / -0.01 / -0.02 / -0.22 / -0.12 / -0.27,-0.12,1/18 (2.43)
S25L S26P S28L V29W W56N,0.28 / -0.06 / 0.08 / 0.21 / -0.08 / 0.12,0.09,1/18 (2.00)
S25L V29F N35M W56N,0.30 / 0.24 / 0.18 / 0.06 / 0.46 / 0.39,0.27,0/18
S25L S26Q V29W W56H E61L,0.89 / 0.61 / 0.80 / 0.86 / 0.74 / 0.98,0.81,2/18 (2.61)
S25M S26E W56N T59Q,-0.02 / -0.08 / -0.16 / -0.09 / -0.26 / -0.08,-0.11,1/18 (1.64)
S25L W56D E61L,-0.18 / -0.29 / -0.37 / -0.74 / -0.46 / -0.30,-0.39,0/18
S25F V29N W56N T59Q,0.90 / 0.78 / 0.93 / 0.52 / 0.57 / 0.92,0.77,1/18 (2.56)
S25L V29H L30E W56N,-0.24 / -0.29 / -0.40 / -0.22 / -0.06 / -0.05,-0.21,1/18 (1.83)
S25L V29E W56N T59Q S62V,0.21 / 0.16 / 0.12 / 0.04 / 0.10 / 0.72,0.22,1/18 (2.31)
S25L V29E W56E T59Q S62Q,0.49 / 0.24 / 0.33 / 0.40 / 0.26 / 0.84,0.43,2/18 (1.93)
S25L V29Q K36S S38N W56N,-0.28 / -0.33 / -0.49 / -0.53 / -0.32 / -0.13,-0.35,2/18 (2.87)
S25L S26P V29E W56Q,-0.57 / -0.65 / -0.61 / -0.86 / -0.68 / -0.10,-0.58,0/18
S25L V29E N35M W56N E61C,0.09 / 0.16 / -0.01 / -0.10 / -0.03 / 0.18,0.05,0/18
S25L S38N W56E S62M,-0.05 / 0.11 / -0.20 / -0.24 / 0.00 / 0.04,-0.06,4/18 (2.98)
S25I V29Y W56E,0.09 / 0.05 / -0.44 / -0.36 / -0.26 / -0.05,-0.16,0/18
S25L V29H S38A W56E,-0.10 / -0.16 / -0.32 / -0.30 / -0.17 / -0.01,-0.17,1/18 (1.51)
S25V L30P W56N T59Q,0.60 / 0.57 / 0.46 / 0.23 / 0.54 / 0.59,0.50,0/18
S25L V29D W56E Q96A,0.11 / 0.05 / -0.03 / -0.18 / 0.07 / 0.03,0.01,0/18
S25L V29W W56N S62M,1.14 / 0.07 / 0.80 / 0.27 / 1.02 / 1.23,0.76,0/18
S25L V29M W56N E61M S62V,-0.25 / -0.32 / -0.29 / -0.63 / -0.49 / -0.39,-0.39,1/18 (3.30)
S25L S26P V29Q W56N S62V,0.48 / 0.29 / 0.26 / 0.47 / 1.31 / 0.34,0.53,1/18 (2.54)
S25M V29W W56N T59Q Q96D,0.20 / 0.07 / -0.05 / 0.12 / 0.06 / 0.31,0.12,0/18
S25L V29F Y31M W56N,-0.25 / -0.26 / -0.45 / -0.31 / -0.43 / -0.26,-0.33,1/18 (3.37)
S25L W56N S103Q,0.72 / 0.70 / 0.36 / 0.95 / 0.35 / 0.65,0.62,2/18 (3.27)
S25L W56N T59C,-0.08 / -0.01 / -0.16 / -0.24 / -0.02 / 0.01,-0.08,1/18 (3.96)
S25C L30D W56D,0.03 / 0.02 / -0.15 / -0.21 / -0.10 / 0.10,-0.05,1/18 (4.77)
S25L S26Y V29E N35M W56N,0.31 / 0.03 / 0.17 / 0.00 / 0.08 / 0.34,0.15,2/18 (1.95)
S25V S26Q L30P W56E,0.42 / 0.03 / 0.08 / -0.38 / -0.01 / 0.15,0.05,0/18
S25L S26E V29H W56N E61M,0.28 / 0.08 / -0.03 / 0.02 / 0.05 / 0.08,0.08,0/18
S25L S28Q V29Q W56N,-0.07 / -0.12 / -0.06 / -0.29 / -0.38 / 0.02,-0.15,0/18
S25L V29Q N35M W56N E61M,0.05 / -0.07 / -0.07 / 0.02 / -0.28 / 0.06,-0.05,1/18 (2.41)
S25L S28L W56N E61L,-0.01 / 0.26 / -0.01 / 0.11 / 0.10 / 0.00,0.08,1/18 (2.54)
S25L S26Q V29Q L30E W56N E61L,0.37 / 0.15 / 0.17 / -0.15 / 0.05 / -0.05,0.09,0/18
S25L L30G W56N S62D,-0.03 / -0.05 / -0.22 / -0.23 / -0.04 / -0.02,-0.10,2/18 (2.62)

Repeated from above, the 3 best binders with a signal in all replicates:

| changes | replicates, log10 nM | mean, log10 nM | empty controls |
|---|---|---|---|
| S25L S26P V29E W56Q | -0.57 / -0.65 / -0.61 / -0.86 / -0.68 / -0.10 | -0.58 | 0/18 |
| S25L V29M W56N E61M S62V | -0.25 / -0.32 / -0.29 / -0.63 / -0.49 / -0.39 | -0.39 | 1/18 (3.30) |
| S25L Q27M W56D | -0.31 / -0.37 / -0.37 / -0.58 / -0.39 / -0.31 | -0.39 | 3/18 (2.98) |